Assay [1] deals with vasogenic cerebral edema caused by cold injury. Briefly: Effect on experimental vasogenic cerebral edema (investigation of administration time). It is filed as in vivo, male Crj:CD (SD) rats. Particulars: for Water content of injured cerebral hemisphere (the mean ± standard error): peptide 100 μg/kg, glycerol solution 10 ml/kg, 24 hours after injury. As for the experimental part:
Using 212 male Crj:CD (SD) rats weighing 300 to 400 g, model animals of vasogenic cerebral edema caused by cold injury were prepared according to the method of Naruse et al. (Brain and Nerve, 33 (6): 569-575 (1981).
Peptide (II) obtained in Reference Example 1 was diluted with a physiological saline so that the peptide concentration became […]. The solution containing the peptide was continuously administered to a predetermined number of rats through the tail vein thereof in an amount of 3 ml per kg of body weight in 90 min so that the total dose of the administered peptide became 100 μg per kg of body weight. Thus, there were obtained six peptide (II)-administered groups.
As a control (solvent), 3 ml per kg of body, weight of the physiological saline was administered to a predetermined number of rats in substantially the same manner as mentioned above, to thereby obtain six physiological saline-administered groups.
As a control for the peptide, an aqueous 10% w/v glycerol solution containing 5% w/v fructose and 0.9% w/v sodium chloride was administered to a predetermined number of rats in substantially the same manner as mentioned above so that the total volume of the administered solution became 10 ml per kg of body weight, to thereby obtain six glycerol-administered groups.
24 hours after the rats were subjected to injury, rats were exsanguinated under ether anesthesia to kill them. Then, cerebra were extracted from the killed rats and each of the cerebra was individually divided into two cerebral hemispheres, namely, a hemisphere having ischemic part and a hemisphere having no ischemic part. The water content of each of the hemispheres was measured in substantially the same manner as in Example 1. In Table 3, the mean and the standard error of the water content of a brain tissue are shown together with the number of rats (n) subjected to experiment in each group.

Assay [2] shares this test system. Briefly: Effect on experimental vasogenic cerebral edema (cold injury). Particulars: rats. The assay is classed as in vivo, male Crj:CD (SD) rats. As for the experimental part:
Using 42 male Crj:CD (SD) rats weighing 300 to 400 g, model animals of vasogenic cerebral edema caused by cold injury were prepared according to the method of Naruse et al. (Brain and Nerve, 33 (6): 569-575 (1981)). (Administration method)
Peptide (II) obtained in Reference Example 1 was diluted with a physiological saline so that the peptide concentration became […]. The solution containing the peptide was continuously administered to eleven rats through the tail vein thereof in an amount of […] of body weight so that the total dose of the administered peptide became 100 μg per kg of body weight, to thereby obtain a peptide (II)-administeredgroup.
Peptide (III) was administered to eight rats in the same manner as described above except that peptide (III) was used instead of peptide (II), to thereby obtain a peptide (III)-administered group.
As a control (solvent), 3 ml per kg of body weight of the physiological saline was administered to eleven rats in substantially the same manner as mentioned above, to thereby obtain a physiological saline-administered group.
As a control for the peptide, an aqueous 10% w/v glycerol solution containing 5% w/v fructose and 0.9% w/v sodium chloride was administered to twelve rats so that the total volume of the administered solution became 10 ml per kg of body weight, to thereby obtain a glycerol-administered group.
The administration of each of the peptide (II) solution, peptide (III) solution and physiological saline was started one hour before the making of cold injury and completed in 90 minutes. On the other hand, the administration of the glycerol solution was started 23 hours after the making of cold injury and completed in 30 minutes in accordance with the ordinary clinical method, so that the total volume of the administered glycerol solution became 10 ml/kg of body weight.
24 hours after the rats had been subjected to cold injury, rats were sacrificed under ether anesthesia. […]
The water content of each of the hemispheres was measured in substantially the same manner as in Example 1. […]

Where [3] appears, read: 24 hours after cold injury, peptide 100 μg/kg tail vein started one hour before injury, 90 min, glycerol solution 10 ml/kg started 23 hours after injury.

Molecules are shown by their SMILES.

`CC[C@H](C)[C@@H]1NC(=O)[C@H](CCCNC(=N)N)NC(=O)[C@H](CC(=O)O)NC(=O)[C@H]([C@@H](C)CC)NC(=O)[C@H](CCCNC(=N)N)NC(=O)CNC(=O)CNC(=O)[C@H](Cc2ccccc2)NC(=O)[C@@H](NC(=O)[C@H](CO)NC(=O)[C@H](CO)NC(=O)[C@H](CCCNC(=N)N)NC(=O)[C@H](CCCNC(=N)N)NC(=O)[C@H](CC(C)C)NC(=O)[C@@H](N)CO)CSSC[C@@H](C(=O)N[C@@H](CC(N)=O)C(=O)N[C@@H](CO)C(=O)N[C@@H](Cc2ccccc2)C(=O)N[C@@H](CCCNC(=N)N)C(=O)N[C@@H](Cc2ccc(O)cc2)C(=O)O)NC(=O)CNC(=O)[C@H](CC(C)C)NC(=O)CNC(=O)[C@H](CO)NC(=O)[C@H](CCC(N)=O)NC(=O)[C@H](C)NC(=O)CNC1=O` [Peptide (II)]: the “increase in water content of a cerebral hemisphere, compared to physiological saline-administered groups” value in assay [1] (administered 6 hours and 22 hours after the making of cold injury) is on record as “not significantly inhibited”. For the same molecule, in assay [1] (administered just before, during, just after or three hours after the making of cold injury), the “increase in water content of the injured cerebral hemisphere, compared to physiological saline-administered groups” value is on record as “significantly inhibited”. The “Water content of injured cerebral hemisphere (the mean ± standard error)” value came out at 80.49 ± 0.18 in assay [1] (administration 3 hours after the making of cold injury); 80.85 ± 0.13 in assay [1] (administration 6 hours after the making of cold injury); 80.66 ± 0.17 in assay [1] (administration 22 hours after the making of cold injury); 80.44 ± 0.09 in assay [1] (administration during the making of cold injury); 80.76 ± 0.07 in assay [1] (administration just after the making of cold injury); 80.78 ± 0.12 in assay [1] (administration just before the making of cold injury). In addition, the “Water content of brain tissue (the mean ± standard error), injured cerebral hemisphere” value in assay [2] (setting [3]) is given as 80.44 ± 0.09. For the same molecule, the “Water content of brain tissue (the mean ± standard error), not injured cerebral hemisphere” value in assay [2] (setting [3]) is recorded as 79.59 ± 0.08. In addition, the “increase in water content of the injured cerebral hemisphere, compared to physiological saline-administered group” value in assay [2] (cold injury) was “markedly inhibited”.

These data come from patent US5204327A, “Treatment of cerebral edema with ANP pharmaceutical compositions” (Ashi Kasei Kogyo Kabushiki Kaisha, priority 1988, dated 1993).
